29 compounds from patent US20260125400A1, “TYK2 DEGRADERS AND USES THEREOF” (Kymera Therapeutics, Inc., priority 2023, published 2026) can be followed below.

The chains behind the UniProt entries cited, without tags or fusion partners.
UniProt P29597, whole entry: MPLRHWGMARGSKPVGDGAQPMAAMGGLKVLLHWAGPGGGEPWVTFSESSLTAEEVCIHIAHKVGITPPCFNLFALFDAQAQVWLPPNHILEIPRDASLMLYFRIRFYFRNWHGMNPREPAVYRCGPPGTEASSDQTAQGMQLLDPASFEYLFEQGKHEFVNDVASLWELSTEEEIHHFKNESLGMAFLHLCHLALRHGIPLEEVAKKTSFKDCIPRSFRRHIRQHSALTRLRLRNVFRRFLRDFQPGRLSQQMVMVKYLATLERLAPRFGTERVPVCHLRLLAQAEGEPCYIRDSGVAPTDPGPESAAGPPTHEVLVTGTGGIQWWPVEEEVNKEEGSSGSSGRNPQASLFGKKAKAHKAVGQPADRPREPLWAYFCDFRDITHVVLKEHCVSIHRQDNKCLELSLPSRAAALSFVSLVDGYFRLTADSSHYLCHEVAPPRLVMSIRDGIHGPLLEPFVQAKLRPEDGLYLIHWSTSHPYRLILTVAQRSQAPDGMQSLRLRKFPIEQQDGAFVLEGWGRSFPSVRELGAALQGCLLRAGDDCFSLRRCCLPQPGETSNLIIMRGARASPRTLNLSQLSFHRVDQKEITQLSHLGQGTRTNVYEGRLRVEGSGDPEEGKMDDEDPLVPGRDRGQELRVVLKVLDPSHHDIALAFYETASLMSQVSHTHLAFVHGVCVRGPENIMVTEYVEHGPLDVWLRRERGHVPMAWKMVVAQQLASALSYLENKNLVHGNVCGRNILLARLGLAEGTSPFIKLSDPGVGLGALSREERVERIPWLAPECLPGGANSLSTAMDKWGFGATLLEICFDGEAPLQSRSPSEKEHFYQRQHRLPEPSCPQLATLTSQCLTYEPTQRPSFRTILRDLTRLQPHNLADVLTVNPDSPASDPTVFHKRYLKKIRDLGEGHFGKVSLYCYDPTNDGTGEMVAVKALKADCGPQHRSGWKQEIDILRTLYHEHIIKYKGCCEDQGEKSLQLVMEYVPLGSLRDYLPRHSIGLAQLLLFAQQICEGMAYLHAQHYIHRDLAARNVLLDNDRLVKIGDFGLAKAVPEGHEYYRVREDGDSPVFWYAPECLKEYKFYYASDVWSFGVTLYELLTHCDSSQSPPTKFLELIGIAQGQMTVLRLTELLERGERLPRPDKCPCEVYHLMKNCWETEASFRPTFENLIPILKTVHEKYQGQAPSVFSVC

As usually defined, the DC50 is the midpoint of the concentration-degradation curve.

The structures appear in SMILES notation. Where two headings read alike, the source gives them in different places. A value given as a limit tells only on which side of the number the result lay.

For the test, the target named is TYK2 (Homo sapiens, UniProt P29597). Description: TYK2 MSD degradation in OCI-LY10 cells. As to the method:
Example 7. TYK2 MSD Degradation
Degradation of TYK2 in cells was quantitatively measured using Meso Scale Discovery (MSD) technology. OCI-LY10 cells were seeded in 96-well plates with a density of 0.4 million cells per well in 100 μl fresh media. Compounds were then added to the assay plates with a final top concentration of 1 to 10 μM in a 1:3 dilution series with total of 9 doses. The assay plates were then incubated for 4 to 24 hours at 37° C. under […]. The assay plates were then centrifuged for 5 minutes, and the cell pellets were treated with 100 μl/well RIPA lysis buffer (Boston Bioproducts, BP-115D) with protease and phosphatase inhibitors (Roche, 05892791001 and 04906837001). To prepare MSD assay plates (MSD, L15XA), the plates were coated with the capture antibody (Santa Cruz Biotechnology, SC-5271) in PBS, at 40 μl/well. The plates were then incubated overnight at 4° C., washed 3 times with 150 μl/well TBST buffer (Cell Signaling Technology, 9997S) and blocked with 150 μl/well blocking buffer (MSD, R93BA-4). Cell lysates were then added to MSD assay plates and the plates were incubated at room temperature for 1 hour. The plates were then washed 3 times with 150 μl/well TBST buffer and 25 μl/well primary detection antibody (Cell Signaling Technology, #9312). The assay plates were then incubated at room temperature for 1 hour, washed 3 times with 150 μl/well TBST buffer, and 25 μl/well secondary detection antibody, SULFO-TAG anti-rabbit antibody (MSD, R32AB-1) were added. The assay plates were then incubated at room temperature for 1 hour, washed 3 times with 150 μl/well TB ST buffer, and 150 μl/well MSD reading buffer (MSD, R92TC-2) were added. The plates were then analyzed by an MSD reader. The data was analyzed by GraphPad Prism and the dose dependent TYK2 degradation was fit using the four-parameter inhibitor vs. response nonlinear regression.
The letter codes for TYK2 DC50 include: A (<1 nM); B (i to <10 nM); C (10 to 100 nM); D (>100 nM); and E (not tested). The letter codes for TYK2 Dmax % include: A (>90%); B (90 to >75%); C (75 to 50%); D (<50%); and E (not tested).

The mark [1] stands for this setting: TYK2 degradation in OCI-LY10 cells, 4 to 24 hours incubation.
Where [2] appears, read: read-out: TYK2 MSD OCI-LY10 Rel-DC50, TYK2 degradation in OCI-LY10 cells, 4 to 24 hours incubation.
Where [3] appears, read: OCI-LY10 cells, 4 to 24 hours incubation.
Where [4] appears, read: read-out: TYK2 MSD OCI-LY10 Rel-DC50, OCI-LY10 cells, 4 to 24 hours incubation.

For the compound `CNc1cc(N2CCc3c(-c4ncc(CN5CCC6(CCN(C(=O)c7cc(Cl)c(C)c(N8CCC(=O)NC8=O)c7)CC6)C(F)(F)C5)cc4F)cccc32)nn2c(C(=O)N[C@@H]3CC[C@H]3OC)cnc12`, under setting [1], the “TYK2 MSD OCI-LY10 Dmax %” value is “A (A (>90%))”. Further, the DC50 under setting [2] is less than 10 nM.
As to `CNc1cc(N2CCc3c(-c4ccc(CN5CC6(CCC(Oc7ccc(Cl)c(C8CCC(=O)NC8=O)c7)CC6)C5)cn4)cccc32)nn2c(C(=O)N[C@@H]3C[C@@H]3F)cnc12` (stereo partly shown), the “TYK2 MSD OCI-LY10 Dmax %” value under setting [3] is on record as “C (C (75 to 50%))”. Besides, under setting [4], the DC50 was less than 10 nM.
The corresponding values for `CNc1cc(N2CCc3c(-c4ccc(CC5CC6(CCN(C(=O)c7ccc(Cl)c(N8CCC(=O)NC8=O)c7)CC6)C5)cn4)cccc32)nn2c(C(=O)N[C@@H]3C[C@@H]3F)cnc12` are “B (B (90 to >75%))” and less than 10 nM.
For `CNc1cc(N2CCc3c(CN4CC[C@@H](CN5CCC6(CC5)CCN(C(=O)c5cc(Cl)c(C)c(N7CCC(=O)NC7=O)c5)CC6)C(F)(F)C4)cccc32)nn2c(C(=O)N[C@@H]3CC[C@H]3OC)cnc12`, the “TYK2 MSD OCI-LY10 Dmax %” value under setting [1] was “A (A (>90%))”. Also, the DC50 under setting [2] was less than 1 nM.
Consider `CNc1cc(N2CCc3c(-c4ccc(CN5CC6(CCN(C(=O)c7ccc(Cl)c(N8CCC(=O)NC8=O)c7)CC6(F)F)C5)cn4)cccc32)nn2c(C(=O)N[C@@H]3CC[C@H]3F)cnc12`, for which, under setting [3], the “TYK2 MSD OCI-LY10 Dmax %” value is listed as “B (B (90 to >75%))”. Also, the DC50 under setting [4] was less than 1 nM.
The corresponding values for `CNc1cc(N2CCc3c(N4CCN(CC5CCN(CCc6ccc(Cl)c(C7CCC(=O)NC7=O)c6)CC5)CC4)cccc32)nn2c(C(=O)N[C@@H]3C[C@@H]3F)cnc12` (stereo partly shown) are “D (D (<50%))” and more than 100 nM.
Consider `CNc1cc(N2CCc3c(-c4ccc([C@@H](C)N5CC6(CCN(C(=O)c7ccc(Cl)c(N8CCC(=O)NC8=O)c7)CC6(F)F)C5)cn4)cccc32)nn2c(C(=O)N[C@@H]3CC[C@H]3OC)cnc12`, for which the “TYK2 MSD OCI-LY10 Dmax %” value under setting [1] is listed as “A (A (>90%))”. In addition, the DC50 under setting [2] is less than 1 nM.
For the compound `CNc1cc(N2CCc3c(-c4ccc(CN5CC[C@H](N6CCN(c7ccc8c(c7)n(C)c(=O)n8C7CCC(=O)NC7=O)CC6)C(F)(F)C5)cn4)cccc32)nn2c(C(=O)N[C@@H]3C[C@@H]3F)cnc12` (stereo partly shown), the “TYK2 MSD OCI-LY10 Dmax %” value under setting [1] is “B (B (90 to >75%))”. Besides, the DC50 under setting [2] is less than 1 nM.
The matching figures for `CO[C@@]1(c2cc(C)cc(-c3cn(C4CN(CC5CCN(c6ccc(NC7CCC(=O)NC7=O)cc6F)CC5)C4)c4cnc(NC(C)=O)cc34)n2)CCOC1` (stereo partly shown): “D (D (<50%))” and more than 100 nM.
The corresponding values for `CNc1cc(N2CCc3c(-c4ncc(CN5CC6(CCN(C(=O)c7cc(N8CCC(=O)NC8=O)c(OC)cc7Cl)CC6(F)F)C5)cc4F)cccc32)nn2c(C(=O)N[C@@H]3CC[C@H]3OC)cnc12` are “A (A (>90%))” and less than 1 nM.
The matching figures for `CNc1cc(N2CCc3c(N4CC[C@@H](CN5CCN(c6ccc7c(c6)n(C)c(=O)n7C6CCC(=O)NC6=O)CC5)C4)cccc32)nn2c(C(=O)NC3CC3)cnc12` (stereo partly shown): “C (C (75 to 50%))” and less than 1 nM.
With `CNc1cc(N2CCc3c(CN4CCC(N5CCC(C6CCN(C(=O)c7cc(Cl)c(C)c(N8CCC(=O)NC8=O)c7)CC6)CC5)C(F)(F)C4)cccc32)nn2c(C(=O)N[C@@H]3CC[C@H]3OC)cnc12` (stereo partly shown), the “TYK2 MSD OCI-LY10 Dmax %” value under setting [1] is “A (A (>90%))”. Moreover, the DC50 under setting [2] is less than 1 nM.
Consider `CNc1cc(N2CCc3c(CN4CCC(N5CCC6(CC5)CN(C(=O)c5cc(Cl)c(C)c(N7CCC(=O)NC7=O)c5)C6)C(F)(F)C4)cccc32)nn2c(C(=O)N[C@@H]3CC[C@H]3OC)cnc12` (stereo partly shown), for which the “TYK2 MSD OCI-LY10 Dmax %” value under setting [1] is recorded as “A (A (>90%))”. Besides, the DC50 under setting [2] is less than 1 nM.
The matching figures for `CNc1cc(N2CCc3c(CN4CC[C@H](N5CCC6(CCN(C(=O)c7cc(C)c(Cl)c(N8CCC(=O)NC8=O)c7)CC6)CC5)C(F)(F)C4)cccc32)nn2c(C(=O)N[C@@H]3CC[C@H]3OC)cnc12`: “A (A (>90%))” and less than 1 nM.
The corresponding values for `CNc1cc(N2CCc3c(CN4CC[C@H](N5CCC6(CC5)CN(C(=O)c5cc(N7CCC(=O)NC7=O)c(Cl)c(C)n5)C6)C(F)(F)C4)cccc32)nn2c(C(=O)N[C@@H]3CC[C@H]3OC)cnc12` are “A (A (>90%))” and less than 1 nM.
The corresponding values for `CNc1cc(N2CCc3c(CN4CCC(N5CCC6(CCC(N(C)c7ccc(Cl)c(N8CCC(=O)NC8=O)c7)CC6)CC5)C(F)(F)C4)cccc32)nn2c(C(=O)N[C@@H]3CC[C@H]3OC)cnc12` (stereo partly shown) are “B (B (90 to >75%))” and less than 10 nM.
Take `CNc1cc(N2CCc3c(-c4ncc(CN5CC6(CCN(C(=O)c7cc(N8CCC(=O)NC8=O)c(C)cn7)CC6(F)F)C5)cc4F)cccc32)nn2c(C(=O)N[C@@H]3CC[C@H]3OC)cnc12`: the “TYK2 MSD OCI-LY10 Dmax %” value under setting [1] is given as “A (A (>90%))”. Also, the DC50 under setting [2] is less than 1 nM.
Turning to `CNc1cc(N2CCc3c(CN4CC[C@@H](CN5CCC6(CC5)CCN(C(=O)c5cc(C)c(Cl)c(N7CCC(=O)NC7=O)c5)CC6)C(F)(F)C4)cccc32)nn2c(C(=O)N[C@@H]3CC[C@H]3OC)cnc12`, where the note is “OCI-LY10 cells, incubated 4 to 24 hours”, the “TYK2 MSD OCI-LY10 Dmax %” value is recorded as “A (A (>90%))”. Also, the DC50 (read-out: TYK2 MSD OCI-LY10 Rel-DC50, OCI-LY10 cells, incubated 4 to 24 hours) was less than 1 nM.
For the compound `CNc1cc(N2CCc3c(-c4ccc(CN5CCC6(CC5)CC(Oc5ccc(Cl)c(N7CCC(=O)NC7=O)c5)C6)cn4)cccc32)nn2c(C(=O)N[C@@H]3C[C@@H]3F)cnc12`, the “TYK2 MSD OCI-LY10 Dmax %” value under setting [1] is given as “C (C (75 to 50%))”. Also, the DC50 under setting [2] is less than 1 nM.
In the case of `CNc1cc(N2CCc3c(-c4ccc(CN5CCC(N6CC(CN7CCN(c8ccc9c(c8)n(C)c(=O)n9C8CCC(=O)NC8=O)CC7)C6)C(F)(F)C5)cn4)cccc32)nn2c(C(=O)N[C@@H]3C[C@@H]3F)cnc12` (stereo partly shown), the “TYK2 MSD OCI-LY10 Dmax %” value under setting [3] was “B (B (90 to >75%))”. The DC50 under setting [4] is less than 1 nM.
In the case of `CNc1cc(N2CCc3c(N4CCN(CCN5CCN(C(=O)c6ccc(Cl)c(N7CCC(=O)NC7=O)c6)CC5)CC4)cccc32)nn2c(C(=O)NC3CC3F)cnc12` (stereo not shown), the “TYK2 MSD OCI-LY10 Dmax %” value under setting [1] was “D (D (<50%))”. Besides, under setting [2], the DC50 is more than 100 nM.
The matching figures for `CNC(=O)c1cnc(Nc2ccc(C(=O)NCCCCCCCCCCCCCCN(C(=O)[C@H]3CCCN(c4cncc5ccccc45)C3)c3ccc(=O)n(CC(=O)OC)c3)cn2)cc1Nc1cccc(-c2ncccn2)c1OC`: “D (D (<50%))” and more than 100 nM.
In the case of `CNc1cc(N2CCc3c2cccc3-n2cc(CN3CCC4(CCN(C(=O)c5cc(C)c(Cl)c(N6CCC(=O)NC6=O)c5)CC4)C(F)(F)C3)cn2)nn2c(C(=O)N[C@@H]3CC[C@H]3OC)cnc12`, the “TYK2 MSD OCI-LY10 Dmax %” value under setting [1] is recorded as “B (B (90 to >75%))”. For the same compound, the DC50 under setting [2] is less than 1 nM.
The matching figures for `CNc1cc(N2CCc3c(C4CCN(CC5CN(c6ccc7c(c6)n(C)c(=O)n7C6CCC(=O)NC6=O)C5)CC4)cccc32)nn2c(C(=O)NC3CC3)cnc12` (stereo not shown): “C (C (75 to 50%))” and less than 1 nM.
For the compound `CNc1cc(N2CCc3c(-c4ncc(CN5CC6(CCN(C(=O)c7cc(Cl)c(C)c(N8CCC(=O)NC8=O)c7)CC6(F)F)C5)cc4F)cccc32)nn2c(C(=O)N[C@@H]3CC[C@H]3OC)cnc12`, the “TYK2 MSD OCI-LY10 Dmax %” value under setting [1] is listed as “A (A (>90%))”. The DC50 under setting [2] was less than 1 nM.
The corresponding values for `CNc1cc(N2CCc3c(-c4ncc(CC5CC6(CCN(C(=O)c7cc(C)c(Cl)c(N8CCC(=O)NC8=O)c7)CC6)C5)cc4F)cccc32)nn2c(C(=O)N[C@@H]3CC[C@H]3OC)cnc12` are “A (A (>90%))” and less than 10 nM.
The corresponding values for `CNc1cc(N2CCc3c(-c4cc(CN5CCN(c6ccc7c(c6)n(C)c(=O)n7C6CCC(=O)NC6=O)CC5)ccn4)cccc32)nn2c(C(=O)N[C@@H]3CC[C@H]3OC)cnc12` (stereo partly shown) are “B (B (90 to >75%))” and less than 1 nM.
Regarding `CNc1cc(N2CCc3c(CN4CC[C@@H](N5CCC6(CCN(C(=O)c7cc(Cl)c(C)c(N8CCC(=O)NC8=O)c7)CC6)CC5)C(F)(F)C4)cccc32)nn2c(C(=O)N[C@@H]3CC[C@H]3OC)cnc12`, under setting [1], the “TYK2 MSD OCI-LY10 Dmax %” value was “A (A (>90%))”. Moreover, the DC50 under setting [2] was less than 1 nM.
Consider `CNc1cc(N2CCc3c(CN4CCC(N5CC(N6CCN(C(=O)c7ccc(Cl)c(N8CCC(=O)NC8=O)c7)CC6)C5)C(F)(F)C4)cccc32)nn2c(C(=O)N[C@@H]3C[C@@H]3F)cnc12` (stereo partly shown), for which the “TYK2 MSD OCI-LY10 Dmax %” value under setting [3] is “B (B (90 to >75%))”. Also, under setting [4], the DC50 is less than 1 nM.
